The test concerns peripheral blood mononuclear cells (PBMC). The experiment in a line: Lymphocyte proliferation (3H-thymidine incorporation) in PBMC. The test is classed as cell-based, human. The note with it: added to cell cultures before PHA stimulation with TTA; anti-IL-10 5 μg/mL, IL-2 10 ng/mL; FIG. 4. As to the method: Blood donor (n=5) peripheral blood mononuclear cells (PBMC) were obtained from heparinized blood by Isopaque-Ficoll (Lymphoprep, Nycomed Pharma AS, Oslo, Norway) gradient centrifugation within 1 hour after blood sampling. PBMC were resuspended in RPMI 1640 with 2 mM L-glutamine and 25 mM HEPES buffer (Gibco BRL, Paisley, UK) supplemented with 10% heat inactivated pooled human AB^+ serum (culture medium). The endotoxin level in culture medium, reagents and stimulants was <10 pg/mL (Quantitative chromogenic limulus amebocyte lysate test, BioWhittaker, Inc., Walkerswille, Md.).
PMNC (10^6 cells/mL) were incubated in flat-bottomed, 96-well microtiter trays (200 μL/well; Costar, Cambridge, Mass.) in medium alone or with phytohemagglutinin (PHA; Murex Diagnostics Ltd, Dartford, UK; final concentration 1:100) either alone or with different concentrations of TTA. Bovine serum albumin (BSA, Calbiochem, La Jolla, Calif.) was used as a negative control for TTA (vehicle). […] After 48 hours, cells were pulsed with 1 μCi of ^3H-thymidine (Amersham International plc., Little Chalfont, UK), and 16 hours later cultures were harvested onto glass filter strips, using an automated multisampler harvester (Skatron, Lier, Norway). ^3H-thymidine incorporation was determined by liquid scintillation counting as counts per minute (cpm).

These results are taken from patent US20050165103A1, “Fatty acid analogues for the treatment of inflammatory and autoimmune disorders” (priority 2000, published 2005).

Regarding “IL-2: recombinant human IL-2 (R&D Systems)”, the “effect on the TTA mediated inhibition of PHA stimulated PBMC proliferation” value is recorded as “only a modest counteracting effect”.
